Measurements taken from ChEMBL document CHEMBL3232801, “Oxidative stress in Alzheimer's disease: are we connecting the dots?” (J Med Chem, 2014).

Protein sequences, listed by entry. Tags and fused reporters are not part of them. Lines headed by an entry give the natural chain unless they say otherwise; changes in a name come on top.
UniProt P22303: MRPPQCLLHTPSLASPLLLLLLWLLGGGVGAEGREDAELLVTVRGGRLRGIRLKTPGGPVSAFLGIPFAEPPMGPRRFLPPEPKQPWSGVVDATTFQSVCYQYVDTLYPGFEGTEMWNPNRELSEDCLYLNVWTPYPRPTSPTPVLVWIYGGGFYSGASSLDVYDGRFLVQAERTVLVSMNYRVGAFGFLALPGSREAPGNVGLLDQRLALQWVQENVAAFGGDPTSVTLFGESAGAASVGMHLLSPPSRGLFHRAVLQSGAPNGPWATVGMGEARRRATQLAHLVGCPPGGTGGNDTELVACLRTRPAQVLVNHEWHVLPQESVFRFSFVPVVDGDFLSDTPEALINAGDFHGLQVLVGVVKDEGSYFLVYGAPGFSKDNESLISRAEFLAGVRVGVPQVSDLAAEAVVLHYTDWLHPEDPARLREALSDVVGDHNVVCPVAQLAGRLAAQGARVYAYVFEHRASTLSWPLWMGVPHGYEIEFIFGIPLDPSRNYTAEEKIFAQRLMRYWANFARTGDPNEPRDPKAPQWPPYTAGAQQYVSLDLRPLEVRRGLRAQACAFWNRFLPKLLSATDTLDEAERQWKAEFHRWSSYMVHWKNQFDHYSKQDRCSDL

Molecular target: Acetylcholinesterase (Homo sapiens, UniProt P22303)
Assay: Inhibition of AChE (unknown origin)-mediated amyloid beta aggregation at 100 uM

## COc1cc(/C=C/C(=O)NCCCCCCNc2c3c(nc4ccccc24)CCCC3)ccc1O
  inhibition: 50.3%
